From PubChem BioAssay (Tox21)
Where “and” joins values, the source holds several entries; their conditions need not be identical. Equal values may be shown once. Only a part is listed here, and it is no random draw. Inconclusive results are not listed. Calls of active or inactive are those of the source. The call rests on the fitted dose curve.

assay: qHTS assay to identify small molecule agonists of the NFkB signaling pathway - cell viability counter screen (AID 1159515); details: NFkB-bla ME-180 viability, CellTiter-Glo luminescence, 5 h; at 61 µM (top of the series) unless noted; further: nearly all actives have a fitted effect of over 55% in size
Description: National Center for Advancing Translational Sciences [NCATS]
NIH Chemical Genomics Center [NCGC]
U.S. Environmental Protection Agency [EPA]
National Institutes of Environmental Health Sciences [NIEHS]
National Toxicology Program [NTP]
U.S. Food and Drug Administration [FDA]
Transcription factors and their stimulated target gene expression play pivotal roles across many cellular processes including responses to environmental stimuli. Proper regulation of associated pathways is critical to maintain cell health and function. Constitutive activation of transcription factor pathways has been implicated in tumors as it may block cellular functions such as apoptosis and lead to invasion and metastasis. One important transcription factor that stimulates gene expression in response to cytokines, UV radiation, and other stimuli is nuclear factor-kappa B (NFkB). To measure activation of the NFkB pathway, the CellSensor NFkB-bla ME-180 cell line (Life Technologies, Carlsbad, CA) that stably expresses beta-lactamase reporter gene under the regulation of a NF-kB response element was used. This assay allows measurement of the NFkB pathway activity induced by compounds in a ME-180 cell line. This system quantitates NF-kB activity using a FRET-based assay system where beta-lactamase expression disrupts FRET, allowing for fluorescent measurement of activity. This cell line has been used to screen the Tox21 10K compound library and to identify compounds that induce the NFkB pathway activity. The cytotoxicity of the Tox21 compound library against the NFkB-bla ME-180 cell line was tested in parallel by measuring cell viability using the CellTiter-Glo assay in the same wells.
Tox21 Assay Protocol Summary:
NFkB-bla ME-180 cells were dispensed at 2,000 cells/6 uL of assay medium per well into black wall/clear-bottom 1536-well plates using a Multidrop Combi (ThermoFisher Scientific, Waltham, MA) dispenser. After the assay plates were incubated at 37 C and 5% CO2 for an overnight, 23 nL of compounds dissolved in DMSO, positive controls or DMSO only was transferred to the assay plate by a Pintool station (Kalypsys, San Diego, CA). The assay plates were incubated at 37 C and 5% CO2 for 5 hr. One uL of LiveBLAzer B/G FRET substrate (Life Technologies) was added using a Flying Reagent Dispenser (Aurora Discovery, San Diego, CA) and the plates were incubated at room temperature for 1.5 hr. Fluorescence intensity (405 nm excitation, 460 nm and 530 nm emissions) was measured using an Envision plate reader (PerkinElmer, Shelton, CT). For cytotoxicity, 3 ul/well of CellTiter-Glo reagent was added into the assay plates using an FRD. After 30 min incubation at room temperature, the luminescence intensity was measured using a ViewLux plate reader (PerkinElmer).
On the % scale 0 is the no-effect control and ±100 the full control effect.

Compound | activity, negative = cytotoxic
Cc1cc([N+](=O)[O-])c(O)c([N+](=O)[O-])c1 | inactive: -3.52% [at 78.8 µM]
O=[p+]1oc2ccccc2c2ccccc21 (centres undefined) | inactive: -7.68%
O=P(Cl)(Cl)c1ccccc1 | inactive: 11.4%
CCCCO[P+](=O)OCCCC | inactive: -1.38%
ClP(Cl)c1ccccc1 | inactive: 11.7%
CC(C)CCCCCCCOP(OCCCCCCCC(C)C)Oc1ccccc1 | inactive: -12.2%
NC(=O)Nc1ccc([As](=O)(O)O)cc1 | inactive: 1.17% and inactive: 1.01%
CN(C(=O)Cc1ccc(Cl)c(Cl)c1)[C@H]1CC[C@@]2(CCCO2)C[C@@H]1N1CCCC1 | inactive: 0.463%
CCNC(C)Cc1ccc2c(c1)OCO2 (centres undefined) | inactive: -2.91% [at 78.8 µM]
CCOP(=S)(CC)Sc1ccccc1 (centres undefined) | inactive: -4.55%
CC(C)OP(=S)(OC(C)C)SCCNS(=O)(=O)c1ccccc1 | inactive: -3.43%
O=[P+](Oc1ccccc1)Oc1ccccc1 | inactive: -2.39%
O=P(Cl)(Oc1ccccc1)Oc1ccccc1 | inactive: -0.555%
COC(=O)Cl | inactive: 9.52%
COP(=S)(Cl)OC | inactive: -4.2% [at 78.8 µM]
CCCCC(CC)CO[P+](=O)OCC(CC)CCCC (centres undefined) | inactive: -1.13%
CCOC(=O)Cl | inactive: -2.61%
CN(C(=O)Cc1cccc2occc12)[C@H]1CC[C@@]2(CCCO2)C[C@@H]1N1CCCC1 | inactive: -3.59%
O=[N+]([O-])c1ccc(S(=O)(=O)O)c([N+](=O)[O-])c1 | inactive: 14.9% [at 78.8 µM]
